{"source": "BindingDB's records for doi:10.1111/j.1747-0285.2009.00909.x", "about": "(Queen's University, 2010)", "biological_target": "T1, Heme oxygenase 1 (Rattus norvegicus, UniProt P06762)", "T1 sequence (P06762 whole entry)": "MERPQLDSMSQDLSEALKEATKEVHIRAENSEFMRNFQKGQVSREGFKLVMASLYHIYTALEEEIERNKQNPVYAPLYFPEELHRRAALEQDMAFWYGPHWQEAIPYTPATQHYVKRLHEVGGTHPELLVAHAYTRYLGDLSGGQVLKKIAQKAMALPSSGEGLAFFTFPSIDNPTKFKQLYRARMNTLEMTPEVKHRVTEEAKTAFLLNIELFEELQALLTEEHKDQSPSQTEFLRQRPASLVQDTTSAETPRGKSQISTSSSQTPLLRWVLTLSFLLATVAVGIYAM", "test": "Heme Oxygenase", "details": "pH 7.4; 25 °C", "description": "Heme oxygenase activity in rat spleen and brain microsomal fractions was determined by the quantitation of CO formed from the degradation of methemalbumin (heme complexed with albumin). Spleen and brain (SpragueâDawley rats) microsomal fractions were prepared according to the procedure outlined by Appletonet al. Protein concentration of microsomal fractions was determined by a modification of the Biuret method. Incubations for HO activity analysis were performed under conditions for which the rate of CO formation [pmol CO â (min mg protein)] was linear with respect to time and microsomal protein concentration. […] […]", "data": [{"compound": "O=C(CCc1ccccc1)Cn1ccnc1", "values": [{"measurement": "IC50", "result": 4, "unit": "mM"}]}]}
